How the values were obtained:
[1] = tested on: MM1.S cells; assay: Cell growth inhibition, CellTiter Blue; type: cell-based; details: Homo sapiens, 72 h, read-out: Cell growth inhibitory potential IC50
[2] = tested on: HEK293T cells; assay: Cell growth inhibition, CellTiter Blue; type: cell-based; details: Homo sapiens, HEK-293T, 72 h, read-out: Cell growth inhibitory potential IC50
[3] = tested on: HEK293T cells; assay: p21 immunoblotting in HEK293T cells; details: 6 h drug exposure

With `CC[C@@H]1C(=O)N(C)c2cnc(Nc3ccc(C(=O)NC4CCN(C)CC4)cc3OC)nc2N1C1CCCC1` [BI2536] the IC50 [1] was 1.2 ± 0.15 nM and the IC50 [2] was 0.6 ± 0.14 nM.
For `COc1cc(C(=O)NC2CCN(C)CC2)ccc1Nc1ncc2c(n1)N(C1CCCC1)CC(F)(F)C(=O)N2C` [Ro3280], the p21Cip1 levels [3] was “increased significantly”.

Reference: paper PMC9119049 (Journal of medicinal chemistry, 2021)
